Test results taken from patent US20190177376A1 (NAVIGO PROTEINS, published 2019).

Legend:
[1] = target: T1, human IgG (human); assay: ELISA, IgG coated on plate, detection with Strep-Tactin-HRP
T1 construct: also called probably human IgG1, e.g. Cetuximab

[2] = target: T2, IgG1 (column of Table 2: human IgG1-Fc or Cetuximab) (human); assay: SPR, Biacore 3000, CM5 chip, 25 C, Langmuir 1:1
T2 construct: It cannot be told whether the IgG1 column was measured with human IgG1-Fc or with Cetuximab; also called Cetuximab (IgG1)

Row | Binder | Kd [1] [nM] | Kd [2] [nM]
1 | IB14 (SEQ ID NO: 14) (designed binder, also called parental IB14) PAAKHDKDQQSAFYEILHLPNLTEDQRSAFIQSLKDDPSVSKEILGEAKKLNDAQAPPWSHPQFEK | 4.9 | 
2 | cs14 (SEQ ID NO: 20) (designed binder, also called cs14-3; 1I/11A/28N/35R/42L) IAAKHDKDQQAAFYEILHLPNLTEDQRNAFIQSLRDDPSVSLEILGEAKKLNDAQAPPWSHPQFEK |  | 2.9
3 | cs27 (SEQ ID NO: 30) (designed binder, also called cs27-2; 1I/11A/35R/42L) IAAKFDEAQQAAFYEILHLPNLTEEQRNAFIQSLRDDPSVSLEVLGEAQKLNDSQAPKWSHPQFEK |  | 3.64
